IC50 and EC50 data for 2 compounds are collected here from ChEMBL document CHEMBL1152717, “Discovery of mu-opioid selective ligands derived from 1-aminotetralin scaffolds made via metal-catalyzed ring-opening reactions” (Bioorg Med Chem Lett, 2009).

The chains behind the UniProt entries cited, without tags or fusion partners.
UniProt P41145, whole entry: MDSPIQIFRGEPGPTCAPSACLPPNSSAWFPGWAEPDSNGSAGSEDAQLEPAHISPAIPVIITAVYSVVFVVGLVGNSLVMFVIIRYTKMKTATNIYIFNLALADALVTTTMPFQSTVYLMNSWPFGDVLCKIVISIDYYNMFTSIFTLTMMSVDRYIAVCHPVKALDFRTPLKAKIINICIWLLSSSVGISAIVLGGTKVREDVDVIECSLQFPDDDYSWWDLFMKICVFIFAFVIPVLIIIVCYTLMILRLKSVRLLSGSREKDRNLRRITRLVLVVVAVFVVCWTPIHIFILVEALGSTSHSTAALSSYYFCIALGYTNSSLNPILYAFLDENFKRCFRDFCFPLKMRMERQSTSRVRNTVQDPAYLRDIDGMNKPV
UniProt P35372, whole entry: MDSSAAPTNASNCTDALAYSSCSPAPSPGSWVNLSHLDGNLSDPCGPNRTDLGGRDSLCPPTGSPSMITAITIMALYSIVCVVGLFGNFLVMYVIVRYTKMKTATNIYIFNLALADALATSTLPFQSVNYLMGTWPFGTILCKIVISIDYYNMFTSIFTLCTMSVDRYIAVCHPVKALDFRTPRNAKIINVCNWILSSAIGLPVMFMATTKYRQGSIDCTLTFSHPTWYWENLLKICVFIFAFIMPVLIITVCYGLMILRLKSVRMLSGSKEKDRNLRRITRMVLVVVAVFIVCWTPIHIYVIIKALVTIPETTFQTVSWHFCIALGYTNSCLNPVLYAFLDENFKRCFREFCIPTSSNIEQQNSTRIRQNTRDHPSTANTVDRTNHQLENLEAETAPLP
UniProt P41143, whole entry: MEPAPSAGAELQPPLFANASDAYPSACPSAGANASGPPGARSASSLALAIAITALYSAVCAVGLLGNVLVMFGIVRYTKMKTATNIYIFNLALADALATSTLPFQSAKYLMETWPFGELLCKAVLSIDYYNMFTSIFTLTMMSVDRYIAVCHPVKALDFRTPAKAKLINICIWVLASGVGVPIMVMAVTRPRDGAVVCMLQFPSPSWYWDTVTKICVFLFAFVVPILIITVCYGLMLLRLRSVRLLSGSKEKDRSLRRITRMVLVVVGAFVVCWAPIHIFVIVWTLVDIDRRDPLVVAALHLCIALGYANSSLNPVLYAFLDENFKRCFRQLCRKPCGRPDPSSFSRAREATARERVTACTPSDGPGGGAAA

Assay [1] has as its target Kappa-type opioid receptor (Homo sapiens, UniProt P41145). The assay can be described thus: Displacement of [125I]U69593 from human cloned kappa opioid receptor. (In general: Displacement assays read how much labelled ligand stays bound in the presence of the test substance.)
Assay [2] concerns the target T1, Mu-type opioid receptor (Homo sapiens, UniProt P35372).
For assay [3], the target named is Delta-type opioid receptor (Homo sapiens, UniProt P41143). The assay can be described thus: Displacement of [125I]deltorphin 2 from human cloned delta opioid receptor.
Assay [4] concerns the target T1, Mu-type opioid receptor. The assay can be described thus: Displacement of [125I]FK33824 from human cloned mu opioid receptor.

Molecules are shown by their SMILES. A value given as a limit tells only on which side of the number the result lay.

As a reminder, the IC50 is the midpoint of a concentration-inhibition curve. High values mean weaker potency, low ones greater potency. A word on the EC50: it is the concentration giving half of the maximal effect. On to `COCCN(C(=O)c1ccc(Cl)c(Cl)c1)C1c2cc(OC)c(OC)cc2CCC1N(C)C` (stereo not drawn), for which the figures for the IC50 (in assay [1]; in assay [3]; at Mu-type opioid receptor [4]) were 6 µM, 3.5 µM and 0.351 µM, respectively. At Mu-type opioid receptor [2], this compound registered an EC50 above 90 µM.

With `COCCN(C(=O)c1ccco1)C1c2ccccc2C=CC1N1CCN(c2ccccc2)CC1` (stereo not drawn), the half-maximal inhibitory concentration (IC50) in assay [1] was above 10 µM; in assay [3] it was 3.95 µM; at Mu-type opioid receptor [4], 0.126 µM. Moreover, the concentration for a half-maximal effect (EC50) on Mu-type opioid receptor [2] is above 90 µM.
